# Earlier results, collected in US20220211661A1, “GREEN TEA CATECHINS EUTECTIC SYSTEM” (ASSISTANCE PUBLIQUE - HOPITAUX DE PARIS, priority 2019, published 2022).
# Where “and” joins values, the source holds several entries; their conditions need not be identical. Equal entries are not always repeated.
substance,measurement,setting,value
(-)-epigallocatechin-3-gallate [EGCG],solubility of EGCG in DMSO,ambient temperature,≤ 25 mg/mL
same,EGCG solubility,normal condition,4.6 g/L and 10 mM
